US20260021071A1, “SMALL MOLECULE BROAD-SPECTRUM ANTIBIOTICS” (University of Florida Research Foundation, Incorporated, priority 2022, published 2026)

System: wild-type HepG2 cells
Test: HepG2 cytotoxicity assay (CellTiter-Glo, cellular ATP)

Q: With `O=[N+]([O-])c1nonc1Cn1nnc2ccccc21` as the molecule, how does the “Avg. Max % Resp.” value (HepG2 cytotoxicity, maximum response) read?
A: 36.34%

Q: And the CC50 (read-out: HepG2 CC50, HepG2 cells, CellTiter-Glo, 10 concentrations 3 times)?
A: > 24.8 µM
